The series concerns human DHFR versus Toxoplasma gondii DHFR-TS. Briefly: in vitro.
`Nc1ncc(N2CCN(c3cccc(C4CC4)c3)CC2)c(N)n1`: the selectivity ratio stood at 56.
For `Nc1ncc(N2CCN(c3ccc(Cl)cc3)CC2)c(N)n1` the value was 24; for `Nc1ncc(N2CCN(c3cccc(C(F)(F)F)c3)CC2)c(N)n1`, 8.7.
Turning to `Cc1cccc(N2CCN(c3cnc(N)nc3N)CC2)c1`, the selectivity ratio amounted to 79.

Values taken from ChEMBL document CHEMBL4422638, “Discovery of Selective Toxoplasma gondii Dihydrofolate Reductase Inhibitors for the Treatment of Toxoplasmosis” (J Med Chem, 2019).
